Source: PubChem BioAssay AID1508612
Some results for these compounds are left out of this collection, so the calls shown say nothing about other tests.

Experiment: passive permeability, PAMPA, ADME assay (AID 1508612)
Settings: pH 7.4, 30.0 min, 50.0 µM

With `O=C(C1CCC1)N1CCN(C/C=C/c2ccccc2)CC1` the Papp was greater than 1000 ×10⁻⁶ cm/s.
